# Results as given in PubChem BioAssay AID2780 (Johns Hopkins Ion Channel Center, 2010).
# Only a part is listed here, and it is no random draw. The source made the active and inactive calls.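 The calls were made as follows: active = membrane potential signal shifting up or down by more than 3 SD of buffer-only wells, on both duplicate plates; inactive = the rest.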
# Test: nonspecific voltage dye signal in HEK293 – cell-based, parental HEK293, counter-screen for TRPC6 inhibitor project, confirmation (AID 2780);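 as to membrane potential signal change: plate controls were buffer EC0 wells for no effect and acetylcholine ECmax wells for full effect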
# Conditions: parental HEK293 membrane potential dye fluorescence; at 10 µM
Structure (SMILES),membrane potential signal change,outcome
O=C(OCCCN1CCCC1)C(O)(c1ccccc1)C1CCCCC1 (stereo not given),active: 13.2%,–
CCOC(=O)c1ccc(NP(C)(=O)Oc2ccc(Cl)cc2)cc1 (stereo not given),–,inactive
CN(C)CCOC(=O)C(O)(c1ccccc1)C1CCCC1 (stereo not given),active: 1.4%,–
CCN(CC)CCCOC(=O)C(O)(c1ccccc1)C1CCCCC1 (stereo not given),active: 11.6%,–
CN(C)CCOC(=O)C(O)(c1ccccc1)C1CCCCC1 (stereo not given),active: 3.81%,–
